From ChEMBL document CHEMBL1124121, “Occurrence and pharmacological significance of metabolic ortho-hydroxylation of 5- and 8-hydroxy-2-(di-n-propylamino)tetralin” (1988)

Experiments:
Rattus norvegicus [1] = species: Rattus norvegicus; test: Apparent kinetic constant(Km) for the aromatic hydroxylation on crude rat liver microsomes.; type: functional, organism-based
Method in brief: (§1)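 Crude rat liver microsomes (0.5 mg protein/mL) were incubated with substrate at 37 °C for 3 min in 0.1 M Tris, pH 7.4, with 0.1 mM NADPH and MgCl₂. The reaction was stopped with perchloric acid. Catechol products in the supernatant were measured by HPLC with electrochemical detection. Apparent Km and Vmax came from Lineweaver-Burk plots of 3–4 substrate concentrations, each run in triplicate.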

[2] = Ratio of Km to that Vmax in crude rat liver microsomes was determined; details: Microsome
Rattus norvegicus [3] = species: Rattus norvegicus; test: Apparent kinetic constant(Vmax) for the aromatic hydroxylation on crude rat liver microsomes at 1 mg of protein; type: functional; method in brief: as §1

For `CCCN(CCC)C1CCc2cccc(O)c2C1` (stereo not drawn) [8-OH-DPAT], the Km (Rattus norvegicus [1]) was 80 µM, the Ratio [2] was 9380 and the Vmax (Rattus norvegicus [3]) was 750 pM/min.
